# Results: PMC7312485, “Lessons on the Sigma-1 Receptor in TNBS-Induced Rat Colitis: Modulation of the UCHL-1, IL-6 Pathway” (International Journal of Molecular Sciences, 2020)
# Chains of the proteins cited; added tags and fusions are not shown.
# UniProt Q9R0C9, whole entry: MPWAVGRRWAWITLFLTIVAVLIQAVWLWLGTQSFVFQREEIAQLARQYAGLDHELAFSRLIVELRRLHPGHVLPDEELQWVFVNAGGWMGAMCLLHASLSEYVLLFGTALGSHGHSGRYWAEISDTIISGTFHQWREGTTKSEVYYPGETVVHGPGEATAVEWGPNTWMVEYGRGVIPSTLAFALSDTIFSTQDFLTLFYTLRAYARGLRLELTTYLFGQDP
# Values joined by “and” are separate entries in the source; they are usually repeats but may differ in a detail not shown here. Equal entries are not always repeated.
# Biological target: T1, sigma-1 receptor (σ1R) (Rattus norvegicus, UniProt Q9R0C9)
# T1 construct: from tissue; host or cells: rat colon membrane homogenate (male Wistar–Harlan rats; control, TNBS, 50% EtOH, TNBS + FLV treated)
# Assay: [3H](+)-pentazocine saturation binding in rat colon membranes
# Procedure: The homogenate was centrifuged at 17,000× g for 10 min (4 °C).
# The incubation was terminated by diluting the samples with an ice-cold wash buffer (50 mM of Tris–HCl, pH 8.0), followed by repeated washing and rapid filtration through Whatman GF/B glass fiber filters (Whatman Ltd., Maidstone, UK) presoaked with 0.1% polyethyleneimine. Filtration was performed with a 24-well Brandel Cell Harvester (Gaithersburg, MD, USA). Filters were air-dried and immersed into Ultima Gold MV scintillation cocktail, and then radioactivity was measured with a TRI-CARB 2100TR liquid scintillation analyzer (Packard, Perkin Elmer, Waltham, MA, USA).
# All data are presented as mean ± SEM. […] In competition binding studies, the inhibitory constants (Ki) were calculated from the inflection points of the displacement curves using nonlinear least-square curve fitting and the Cheng–Prusoff equation, Ki = EC50/(1 + [ligand]/Kd).
smiles,measurement,setting,value
CC(C)=CCN1CC[C@]2(C)c3cc(O)ccc3C[C@H]1[C@H]2C [[^3H](+)-pentazocine],"Bmax ± S.E.M., saturation binding (σ1R density)",50% EtOH enema treated rat colon membranes,96 ± 5.2 fmol/mg
same,"Bmax ± S.E.M., saturation binding (σ1R density)",Abs. control rat colon membranes,126 ± 17 fmol/mg and 126 ± 15 fmol/mg
same,"Bmax ± S.E.M., saturation binding (σ1R density)",TNBS-induced colitis rat colon membranes,79 ± 6.5 fmol/mg
same,"Bmax ± S.E.M., saturation binding (σ1R density)",TNBS-induced colitis rat colon membranes after 1 mg/kg FLV administration (TNBS + FLV),134 ± 14 fmol/mg
